“And” between values parts separate entries of the source, which are not always exact repeats. Equal values may be shown once. Read-outs that look alike come from different tables or passages of the source.
Columns and labels:
[1] = biological target: T1, human serotonin transporter (hSERT) (Homo sapiens, UniProt P31645)
[2] = biological target: T1, human serotonin transporter (hSERT); experiment: Inhibition of [125I]RTI-55 binding in HEK-hSERT cell membranes
[3] = biological target: T1, human serotonin transporter (hSERT); experiment: cell-based; conditions: for Ki: Reuptake (Kr, nM) hSERT
[4] = Binding (Ki, nM) hSERT, Table 1
[5] = read-out: Binding (Ki, nM) hSERT, Table 1
[6] = read-out: Binding (Ki, nM) hSERT

Protein sequences, listed by entry. Tags and fused reporters are not part of them.
UniProt P31645, whole entry: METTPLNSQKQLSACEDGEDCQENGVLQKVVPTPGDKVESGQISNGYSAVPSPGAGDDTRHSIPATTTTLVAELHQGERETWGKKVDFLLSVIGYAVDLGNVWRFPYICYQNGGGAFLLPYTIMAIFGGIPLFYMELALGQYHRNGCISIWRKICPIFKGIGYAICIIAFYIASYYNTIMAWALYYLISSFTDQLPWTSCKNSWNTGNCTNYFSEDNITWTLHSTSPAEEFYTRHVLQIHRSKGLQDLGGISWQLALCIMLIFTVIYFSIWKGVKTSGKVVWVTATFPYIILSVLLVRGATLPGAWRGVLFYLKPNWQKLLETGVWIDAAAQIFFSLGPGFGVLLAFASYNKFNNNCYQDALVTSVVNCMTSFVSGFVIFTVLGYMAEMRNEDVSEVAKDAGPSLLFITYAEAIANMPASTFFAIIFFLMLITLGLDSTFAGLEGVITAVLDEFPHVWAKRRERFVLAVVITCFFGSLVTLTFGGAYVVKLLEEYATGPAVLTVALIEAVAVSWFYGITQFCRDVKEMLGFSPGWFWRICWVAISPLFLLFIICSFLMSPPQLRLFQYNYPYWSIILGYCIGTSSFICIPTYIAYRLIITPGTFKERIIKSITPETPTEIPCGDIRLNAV

Compound | Ki ([3]; Table 1) [nM] | Ki [2, 4] | further results
2-(Aminomethyl)-5-(3′-pyridinylethyl)tetrahydrofuran [Compound 15i] | – | – | IC50 ([1]; read-out: Reuptake (IC50, nM) hSERT, Table 9, mean ± SEM): 2720 ± 718 nM; IC50 ([1]; read-out: hSERT reuptake IC50, text of Example 28): 2720 nM; Ki ([2]; read-out: hSERT binding Ki, text of Example 28): 4550 nM
COc1ccc(C2=NN(CCCCCNCCC(Oc3ccc(C(F)(F)F)cc3)c3ccccc3)C(=O)C3CC=CCC23)cc1OC (single isomer, unassigned) [23(S), 4-(3,4-Dimethoxy-phenyl)-2-{5-[3-phenyl-3-(4-trifluoromethyl-phenoxy)-propylamino]-pentyl}-4a,5,8,8a-tetrahydro-2H-phthalazin-1-one] | – | – | IC50 ([3]; Reuptake (IC50, nM) hSERT): > 5740 nM; Ki ([2]; Binding (Ki, nM) hSERT): 1210 ± 146 nM
COc1ccc(C2=NN(CCCCCNCCC(Oc3ccc(C(F)(F)F)cc3)c3ccccc3)C(=O)C3CC=CCC23)cc1OC (single isomer, unassigned) [24(R), 4-(3,4-Dimethoxy-phenyl)-2-{5-[3-phenyl-3-(4-trifluoromethyl-phenoxy)-propylamino]-pentyl}-4a,5,8,8a-tetrahydro-2H-phthalazin-1-one] | – | – | IC50 ([3]; Reuptake (IC50, nM) hSERT): 40 ± 15 nM; Ki ([2]; Binding (Ki, nM) hSERT): 82 ± 22 nM
COc1ccc(F)cc1CCC1CCC(CCNCCCCCN2N=C(c3ccc(OC)c(OC)c3)C3CC=CC[C@H]3C2=O)O1 (stereo in doubt) [Compound 21, 4-(3,4-Dimethoxy-phenyl)-2-[5-(2-{5-[2-(5-fluoro-2-methoxy-phenyl)-ethyl]-thtrahydro-furan-2-yl}-ethylamino)-pentyl]-4,5,8,8a-tetrahydro-2H-phthalazin-1-one] | – | – | IC50 [3]: 286 ± 134 nM; Ki ([2]; Binding (Ki, nM) hSERT, Table 3, mixtures of diastereomers): 80 ± 7 nM
NCC1CCC(CCC2CCCO2)O1 (stereo not shown) [2-(amino-methyl)-5-(-2″- tetrahydrofuryl-2′-ethyl)tetra-hydrofuran.] | > 10000 | 10300 nM | –
NCCC1CCC(CCc2cccc3ccccc23)O1 (stereo not shown) [2-(aminoethyl)-5-(1′-naphethyl) tetrahydrofuran] | 73 | 30 nM and 39 nM | –
NCCC1CCC(CCc2ccc3ccccc3c2)O1 (stereo not shown) [2-(aminoethyl)-5-(2′-naphthylethyl) tetrahydrofuran] | 712 | 489 nM | –
NCCC1CCC(CCc2cccnc2)O1 (stereo not shown) [2-(aminoethyl)-5-(3′-pyridylethyl) tetrahydrofuran] | 5580 | 5690 nM | –
Cc1cc(CCC2CCC(CCN)O2)ccc1F (stereo not shown) [2-(aminoethyl)-5-(4′-fluoro-3′-methylphenethyl) tetrahydrofuran] | 30 | – | Ki [2, 5]: 688 nM
NCCC1CCC(CCc2ccc(F)cc2)O1 (stereo not shown) [2-(aminoethyl)-5-(4′-fluoro-phenethyl) tetrahydrofuran] | 278 | 538 nM | –
NCCC1CCC(CCc2ccc(O)cc2)O1 (stereo not shown) [2-(aminoethyl)-5-(4′-hydroxy-phenethyl) tetrahydrofuran] | 4040 | – | Ki [2, 5]: 7480 nM
COc1ccc(CCC2CCC(CCN)O2)cc1 (stereo not shown) [2-(aminoethyl)-5-(4′-methoxy-phenethyl) tetrahydrofuran] | 628 | 2520 nM | –
Cc1ccc(CCC2CCC(CCN)O2)cc1 (stereo not shown) [2-(aminoethyl)-5-(4′-methylphenethyl) tetrahydrofuran] | 3760 | 3740 nM | –
NCCC1CCC(CCc2ccc(-c3ccccc3)cc2)O1 (stereo not shown) [2-(aminoethyl)-5-(4′-phenylphenethyl) tetrahydrofuran] | 2990 | 3590 nM | –
CC(C)(C)c1ccc(CCC2CCC(CCN)O2)cc1 (stereo not shown) [2-(aminoethyl)-5-(4′-t-butyl-phenethyl) tetrahydrofuran] | > 10000 | > 10000 nM | –
NCCC1CCC(CCc2ccc(OC(F)(F)F)cc2)O1 (stereo not shown) [2-(aminoethyl)-5-(4′-trifluoro-methoxyphenethyl)tetra-hydrafuran] | 519 | 1800 nM | –
NCCC1CCC(CCC2CCCCC2)O1 (stereo not shown) [2-(aminoethyl)-5-(cyclohexylethyl) tetrahydrofuran] | 217 | > 10000 nM | –
COc1ccc2ccccc2c1C1CCC(CN)O1 (stereo not shown) [2-(aminomethyl)-5-(2′-methoxy-1′-naphethyl) tetahydrofuran] | 78 | 843 nM | –
NCC1CCC(c2ccc3ccccc3c2)O1 (stereo not shown) [2-(aminomethyl)-5-(2′-naphthyl) tetrahydrofuran] | 4 | – | Ki [2, 5]: 45 nM
Cc1ccc(C2CCC(CN)O2)cc1F (stereo not shown) [2-(aminomethyl)-5-(3′-fluoro-4′-methylphenyl) tetrahydrofuran] | 178 | 2670 nM | –
NCC1CCC(CCc2cccnc2)O1 (stereo not shown) [2-(aminomethyl)-5-(3′-pyridylethyl) tetrahydrofuran] | 2550 | – | Ki [2, 5]: 4550 nM
NCC1CCC(c2ccc(Br)cc2)O1 (stereo not shown) [2-(aminomethyl)-5-(4′-bromophenyl) tetrahydrofuran] | – | – | Ki [3]: 50 nM; Ki [2, 6]: 1110 nM
NCC1CCC(c2ccc(Cl)cc2)O1 (stereo not shown) [2-(aminomethyl)-5-(4′-chlorophenyl) tetrahydrafuran] | – | – | Ki [3]: 32 nM; Ki [2, 6]: 1100 nM
Cc1cc(CCC2CCC(CN)O2)ccc1F (stereo not shown) [2-(aminomethyl)-5-(4′-fluoro-3′-methylphenethyl) tetrahydrouran] | 125 | 256 nM | –
